# Measured values: US8263562B2, “Peptides for preventing or treating liver damage” (priority 2006, dated 2012)
# What was measured:
# [1] = tested on: tetrachloromethane-induced liver damage; assay: Tetrachloromethane-induced liver damage of mice; assay type: in vivo, BALB/c mice; settings: 750 thousand units/kg intraperitoneal, every day for 7 days
# Description: BALB/c mice, each of which is 18 g˜22 g weight, and purchased from Shanghai Slac Laboratory Animal, Inc., were divided randomly into 8 groups as follows with 10 rats in each group: (1) the diammonium glycyrrhizinate injection group, injected with diammonium glycyrrhizinate; (2) the interferon group, injected with recombinant human interferon-α2a); (3) the high dose group, immunized with Peptide A and adjuvant; (4) the medium dose group, immunized with Peptide A and adjuvant; (5) the low dose group, immunized with Peptide A and adjuvant; (6) the adjuvant control group, immunized with adjuvant only; (7) the blank control group; and (8) the model group.
# At the first before the first immunization, 0.05 ml CCl4 (available from Shanghai Linfen Chemical Reagent Co., Ltd.) was administered via subcutaneous injection to each mouse of all groups other than the blank control group; and the equivalent volume of physiological saline was injected for the blank control group. […]
# [2] = tested on: BCG vaccine and lipopolysaccharide-induced immunological liver damage; parameters: species or system Wistar Rats; settings: rat, in vivo, ip
substance,measurement,setting,value
"interferon: recombinant human interferon-α2a purchased from Shenyang Sunshine Pharmaceutical Co., Ltd. [reference compound]",activity to decrease the level of aminotransferase,[1],no significant activities
same,tetrachloromethane-induced hepatomegaly of mice,[1],no significant activity
same,pathological conditions (score) versus model group,[2],alleviated significantly
